Reference: ChEMBL document CHEMBL1944613, “Cloning, characterization and sulfonamide inhibition studies of an α-carbonic anhydrase from the living fossil sponge Astrosclera willeyana” (Bioorg Med Chem, 2012)
pKi: −log10 of the molar value.

Molecular target: T1, Astrosclerin-3 (Astrosclera willeyana, UniProt A6YCJ1)
T1 sequence (A6YCJ1 whole entry): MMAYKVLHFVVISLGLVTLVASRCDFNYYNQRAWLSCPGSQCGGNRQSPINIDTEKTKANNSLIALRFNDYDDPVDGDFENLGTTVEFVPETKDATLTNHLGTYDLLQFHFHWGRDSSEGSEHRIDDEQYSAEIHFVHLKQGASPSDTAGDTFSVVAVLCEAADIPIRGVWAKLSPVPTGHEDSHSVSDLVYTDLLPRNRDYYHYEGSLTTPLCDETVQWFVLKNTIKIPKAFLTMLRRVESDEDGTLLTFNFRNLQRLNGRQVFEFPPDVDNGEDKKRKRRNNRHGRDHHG

| SMILES | pKi |
| --- | --- |
| Nc1nnc(S(N)(=O)=O)s1 | 6.43 |
| Nc1cc(C(F)(F)F)c(S(N)(=O)=O)cc1S(N)(=O)=O [2,4-DISULFAMYLTRIFLUOROMETHYLANILINE] | 6.26 |
